Ab-91 heavy chain CDR variants: yeast mating affinities

Target: peptide PDVDLGDISGINAS, taken from heptad repeat 2 (HR2) of SARS-CoV-2 spike.

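The parent was found by panning a naive human phage display library on the peptide. Variants in AAYL51 differ from the parent at up to three CDR positions; double and triple changes were sampled at random. AlphaSeq pools MATa yeast showing the antibodies with MATalpha yeast showing the peptide. Binding brings cells together so that they mate, and sequencing counts the barcode pairs among the diploids. The ratio of observed to expected reads was calibrated, replicate by replicate, on BCL2-family standards whose Kd was known from biolayer interferometry. Mating was done three times.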

Parent: Ab-91, a human scFv built as VL, a (GGGGS)3 linker, VH. Only the CDRs of the heavy chain vary.
VL: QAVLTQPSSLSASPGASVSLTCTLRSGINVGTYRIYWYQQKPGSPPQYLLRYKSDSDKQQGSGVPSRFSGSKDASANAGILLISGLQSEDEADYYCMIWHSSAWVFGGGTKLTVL
VH: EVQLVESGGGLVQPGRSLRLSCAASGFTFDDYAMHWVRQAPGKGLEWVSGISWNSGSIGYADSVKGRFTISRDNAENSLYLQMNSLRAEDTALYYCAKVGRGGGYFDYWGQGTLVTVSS

Changes read parent residue, position, new residue, counted from the first residue of the VH shown. Scale: log10 of Kd in nM, estimated from mating counts; low values are strong binders. The mean shown is taken over the replicates in which the pair was detected. "nd" marks a missing value. The strain was present, yet no cells mated with the target were sequenced in any replicate, which points to weak or no binding.

With T28Y+D30N+F106Y the result was 2.72 (3 of 3 replicates).
With F29M+G100E+G103D the result was 2.20 (3 of 3 replicates).
With F27K+I51T+G103N the result was 6.00 (3 of 3 replicates).
With F29V+D31M+K65D the result was nd (0 of 3 replicates).
With I51V+R101I+G102K the result was 4.31 (1 of 3 replicates).
With H35K+N54A the result was 3.54 (1 of 3 replicates).
With D31K+I51L+V99R the result was 0.97 (3 of 3 replicates).
With R101L+G102T+G104P the result was 4.50 (1 of 3 replicates).
With G56H+G59Q+V99N the result was nd (0 of 3 replicates).
With Y32T+I58W+F106G the result was nd (0 of 3 replicates).
With G56M+D107I+Y108H the result was 5.34 (3 of 3 replicates).
With W53S+A61M+V99F the result was 3.52 (2 of 3 replicates).
With T28G+D31G+Y32H the result was 5.05 (1 of 3 replicates).
With G26Q+D62M+F106M the result was 4.71 (2 of 3 replicates).
With D31K+A33S+Y105C the result was 0.75 (3 of 3 replicates).
With A33K+M34W+S55K the result was nd (0 of 3 replicates).
With S52K+G56P+G104I the result was 4.80 (2 of 3 replicates).
With H35I+N54P+Y60I the result was 4.44 (1 of 3 replicates).
With M34Y+G59H+K65Y the result was nd (0 of 3 replicates).
With I58K+G59E+Y60K the result was 3.60 (1 of 3 replicates).
With S57E+D62M+R101Q the result was -0.20 (3 of 3 replicates).
With M34H+I51T+Y105R the result was nd (0 of 3 replicates).
With F29P+K65I+D107M the result was 4.31 (1 of 3 replicates).
With G50W+S52T+D107H the result was nd (0 of 3 replicates).

Continued, with the values leading:

Result 2.86 (3 of 3 replicates), variant Y32V+Y60T+Y108Q.
Result nd (0 of 3 replicates), variant G56Q+Y60I+D62L.
Result 3.51 (2 of 3 replicates), variant G26M+T28S+Y105A.
Result 6.76 (1 of 3 replicates), variant T28E+G56K+F106V.
Result 4.97 (2 of 3 replicates), variant F27M+I58P+R101H.
Result 5.10 (2 of 3 replicates), variant D31S+G56I+V64E.
Result nd (0 of 3 replicates), variant T28C+G56H+Y60D.
Result nd (0 of 3 replicates), variant Y32F+S57D+D107P.
Result nd (0 of 3 replicates), variant Y32I+N54L+S63G.
Result 4.68 (3 of 3 replicates), variant I51G+N54T+Y105T.
Result nd (0 of 3 replicates), variant D31P+Y32Q.
Result 5.74 (2 of 3 replicates), variant I58R+K65V+D107S.
Result 3.90 (1 of 3 replicates), variant I51R+S55W.
Result 5.41 (1 of 3 replicates), variant G50Y+G56P+G100I.
Result nd (0 of 3 replicates), variant G26M+I58Q+V99K.
Result 5.23 (1 of 3 replicates), variant S52T+A61P+G104V.
Result nd (0 of 3 replicates), variant I51C+G59V+D107K.
Result 4.74 (2 of 3 replicates), variant D30W+S52I+V99H.
Result 4.72 (1 of 3 replicates), variant A33V+G50I+D107H.
Result 3.69 (1 of 3 replicates), variant Y32F+G50D+N54T.
Result 3.82 (1 of 3 replicates), variant G26L+N54P+S57F.
Result nd (0 of 3 replicates), variant T28W+S55K+G103Y.
Result 5.55 (2 of 3 replicates), variant H35Q+W53H+K65E.
Result nd (0 of 3 replicates), variant H35A+G50F+V99P.
Result 4.36 (1 of 3 replicates), variant H35E+G104Q+F106I.

4 of these entries, quoted again:

changes,mean log10 Kd (nM),seen in
W53S+A61M+V99F,3.52,2/3
H35Q+W53H+K65E,5.55,2/3
S52T+A61P+G104V,5.23,1/3
D31K+A33S+Y105C,0.75,3/3

As a blank, each scFv also met three strains without target: over library AAYL51, 21% of these pairings were detected, typically at 4.54 and seldom below 3.26.

From the AlphaSeq antibody data of Engelhart et al. 2022 (doi:10.1038/s41597-022-01779-4), copy in the FLAb collection.